In patent US20090239891A1 (priority 2006, published 2009):

Assay: Plasma concentration of buprenorphine after intravenous administration (LC/MS)
Conditions: mice

Substance: buprenorphine hydrochloride
- Plasma Concentration of buprenorphine (0.08 hours after i.v. 2.4 mg/kg): 1.138e+06 µg/mL
- Plasma Concentration of buprenorphine (0.25 hours after i.v. 2.4 mg/kg): 407000 µg/mL
- Plasma Concentration of buprenorphine (0.5 hours after i.v. 2.4 mg/kg): 207000 µg/mL
- Plasma Concentration of buprenorphine (1 hour after i.v. 2.4 mg/kg): 91200 µg/mL
- Plasma Concentration of buprenorphine (2 hours after i.v. 2.4 mg/kg): 31500 µg/mL
- Plasma Concentration of buprenorphine (3 hours after i.v. 2.4 mg/kg): 22700 µg/mL
- Plasma Concentration of buprenorphine (5 hours after i.v. 2.4 mg/kg): 13000 µg/mL
- Plasma Concentration of buprenorphine (7 hours after i.v. 2.4 mg/kg): 7100 µg/mL
- Plasma Concentration of buprenorphine (9 hours after i.v. 2.4 mg/kg): 5200 µg/mL
- Plasma Concentration of buprenorphine (12 hours after i.v. 2.4 mg/kg): 1900 µg/mL
- Plasma Concentration of buprenorphine (18 hours after i.v. 2.4 mg/kg): 580 µg/mL
- Plasma Concentration of buprenorphine (24 hours after i.v. 2.4 mg/kg): 210 µg/mL
- plasma concentration as % of the initial concentration (within 5 or 6 hours after i.v. 2.4 mg/kg): approximately 1%
